Laboratory results: paper PMC6222329 (Molecules : A Journal of Synthetic Chemistry and Natural …, 2018)

Amino acid sequences for entries named in this document (tags omitted). Residues count along the entry.
UniProt P22303, 32-614: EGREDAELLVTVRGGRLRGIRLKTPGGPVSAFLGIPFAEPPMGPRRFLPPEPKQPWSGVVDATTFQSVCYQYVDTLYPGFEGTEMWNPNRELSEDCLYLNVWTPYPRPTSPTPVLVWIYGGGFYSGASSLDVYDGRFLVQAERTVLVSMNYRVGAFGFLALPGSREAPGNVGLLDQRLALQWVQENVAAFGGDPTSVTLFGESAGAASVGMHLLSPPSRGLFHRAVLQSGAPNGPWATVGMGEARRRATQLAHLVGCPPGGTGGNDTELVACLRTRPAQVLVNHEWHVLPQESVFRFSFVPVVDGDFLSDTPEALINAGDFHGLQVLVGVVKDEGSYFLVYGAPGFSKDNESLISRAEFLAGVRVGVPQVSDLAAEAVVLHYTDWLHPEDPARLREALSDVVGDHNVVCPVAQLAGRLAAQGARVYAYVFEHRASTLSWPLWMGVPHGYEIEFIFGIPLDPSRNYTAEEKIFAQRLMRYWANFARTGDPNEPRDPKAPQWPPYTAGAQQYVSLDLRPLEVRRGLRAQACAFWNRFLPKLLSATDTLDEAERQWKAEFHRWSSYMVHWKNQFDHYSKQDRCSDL
UniProt O42275, 24-633: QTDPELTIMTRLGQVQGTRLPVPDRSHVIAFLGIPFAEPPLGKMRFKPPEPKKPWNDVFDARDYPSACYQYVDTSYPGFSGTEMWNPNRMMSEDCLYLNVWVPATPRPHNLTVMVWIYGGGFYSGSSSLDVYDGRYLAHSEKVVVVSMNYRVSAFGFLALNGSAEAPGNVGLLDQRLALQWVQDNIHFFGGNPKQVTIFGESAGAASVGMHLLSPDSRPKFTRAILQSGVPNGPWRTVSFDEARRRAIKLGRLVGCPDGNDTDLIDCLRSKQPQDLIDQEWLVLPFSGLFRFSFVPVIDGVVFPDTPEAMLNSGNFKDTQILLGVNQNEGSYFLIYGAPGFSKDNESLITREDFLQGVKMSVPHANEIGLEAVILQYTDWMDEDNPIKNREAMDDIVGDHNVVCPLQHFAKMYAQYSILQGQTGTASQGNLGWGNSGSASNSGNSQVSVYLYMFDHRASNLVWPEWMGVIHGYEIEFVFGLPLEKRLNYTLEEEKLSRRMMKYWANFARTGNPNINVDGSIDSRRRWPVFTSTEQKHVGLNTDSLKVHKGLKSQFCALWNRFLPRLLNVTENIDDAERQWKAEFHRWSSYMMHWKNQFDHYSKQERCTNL

How the values were obtained:
AChE (Human) = target: T1, AChE (Human) (Homo sapiens, UniProt P22303); experiment: AChE inhibition, Ellman's method; format: biochemical
T1 construct: purchased Sigma-Aldrich (Steinheim, Germany)

[1] = target: T2, AChE (Electrophorus electricus) (Electrophorus electricus, UniProt O42275); experiment: AChE inhibition, Ellman's method; format: biochemical
T2 construct: purchased Sigma-Aldrich (Steinheim, Germany)

Nc1c2ccccc2nc2ccccc12 [Aminoacridine, 9-aminoacridine, reference compound]
IC50 (AChE (Human)): 1340 ± 47 nM | IC50 [1]: 1750 ± 72 nM
